Columns and labels:
Liver microsomes [1] = assay: Metabolic stability in human liver microsomes assessed as compound remaining over 60 mins in presence of NADPH; details: 1 h
Liver microsomes [2] = assay: Metabolic stability in human liver microsomes assessed as compound remaining over 60 mins in absence of NADPH; details: 1 h

How did the Stability (Liver microsomes [1]) turn out when N#Cc1c(-c2ccc(-c3no[n+]([O-])c3C#N)s2)no[n+]1[O-] was run?
Its Stability is 3%.

And the Stability (Liver microsomes [2])?
Its Stability is 56%.

Source: ChEMBL document CHEMBL1155233, “Structure mechanism insights and the role of nitric oxide donation guide the development of oxadiazole-2-oxides as therapeutic agents against schistosomiasis” (J Med Chem, 2009)
